Only a part is listed here, and it is no random draw. Records with an inconclusive call do not appear. The source made the active and inactive calls. Calls follow the shape of the dose curve; as a rule, active = well fitted cell-killing curve with a large enough effect; inconclusive = small, poorly fitted or top-dose-only effect, or effect the other way; inactive = flat fitted curve, though single readings scatter.

A short description of the assay: qHTS for induction of synthetic lethality in tumor cells producing 2HG: qHTS for the HT-1080-NT fibrosarcoma cell line.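 Also: NT is the 2HG producing partner of a matched IDH1 knockdown line; 0% = DMSO-treated cells and -100% = media-only wells without cells; nearly all actives have a fitted effect of over 55% in size.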 As to conditions: HT-1080-NT fibrosarcoma viability, CellTiter-Glo ATP luminescence, 48 h; at 46.1 µM (top of the series).
With `CCC(=O)N(c1ccccc1)C1(COC)CCN(CCc2cccs2)CC1`, the activity, negative = less viability was inactive: -11.1%.

In the case of `CCC(=O)N(c1ccccc1)C1(COC)CCN(CCn2nnn(CC)c2=O)CC1`, the activity, negative = less viability was inactive: 8.72%.

These data come from PubChem BioAssay AID686970 (National Center for Advancing Translational Sciences (NCATS), 2013).
